Tests used:
[1] = target: T1, fMet-Leu-Phe receptor (Homo sapiens) (UniProt P21462); assay: Antagonist activity against FPR1 in human neutrophils assessed as calcium mobilization preincubated for 30 mins followed by fMLF addition and measured for 5 sec for 240 sec by fluorometry; format: functional
T1 sequence (whole entry): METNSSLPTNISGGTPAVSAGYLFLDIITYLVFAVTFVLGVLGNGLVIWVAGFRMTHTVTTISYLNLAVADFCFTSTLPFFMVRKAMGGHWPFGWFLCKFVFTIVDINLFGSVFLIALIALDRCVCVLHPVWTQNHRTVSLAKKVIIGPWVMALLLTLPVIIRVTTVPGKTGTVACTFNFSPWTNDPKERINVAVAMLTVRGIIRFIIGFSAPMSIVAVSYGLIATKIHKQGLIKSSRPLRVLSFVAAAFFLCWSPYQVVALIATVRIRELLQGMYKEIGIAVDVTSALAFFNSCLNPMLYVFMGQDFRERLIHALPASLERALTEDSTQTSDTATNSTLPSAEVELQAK

Neutrophil = assay: Inhibition of fMLF-induced migration of human neutrophil preincubated for 30 mins followed by fMLF stimulation and measured after 60 mins by luminescence based assay; format: functional, cell-based

| SMILES | Activity [1] | inhibition (Neutrophil) |
| --- | --- | --- |
| COC(=O)[C@@H](CC(C)C)NC(=O)[C@H](Cc1c[nH]c2ccccc12)NC(=O)c1ccccc1 | Dose-dependent effect | – |
| COC(=O)[C@H](Cc1ccccc1)NC(=O)[C@H](Cc1c[nH]c2ccccc12)NC(=O)c1ccccc1 | – | Dose-dependent effect |
| COC(=O)[C@H](NC(=O)[C@H](Cc1c[nH]c2ccccc12)NC(=O)c1ccccc1)C(C)C | Dose-dependent effect | – |
| COC(=O)[C@@H](Cc1ccccc1)NC(=O)[C@H](Cc1c[nH]c2ccccc12)NC(=O)c1ccccc1 | – | Dose-dependent effect |
| COC(=O)[C@@H](CC1CCCCC1)NC(=O)[C@H](Cc1c[nH]c2ccccc12)NC(=O)c1ccccc1 | – | Dose-dependent effect |

Second part, led by results:

| Activity [1] | SMILES | inhibition (Neutrophil) |
| --- | --- | --- |
| Dose-dependent effect | COC(=O)[C@@H](Cc1ccccc1)NC(=O)[C@H](Cc1c[nH]c2ccccc12)NC(=O)C1CCCCC1 | Dose-dependent effect |
| Dose-dependent effect | COC(=O)[C@@H](Cc1ccccc1)NC(=O)[C@H](Cc1c[nH]c2ccccc12)NC(=O)CC(C)C | – |
| Dose-dependent effect | COC(=O)[C@@H](Cc1ccccc1)NC(=O)[C@H](Cc1c[nH]c2ccccc12)NC(=O)OC(C)(C)C | – |

Source: ChEMBL document CHEMBL4373681, “Aurantiamide-related dipeptide derivatives are formyl peptide receptor 1 antagonists” (Medchemcomm, 2019)
